This note sets out measurements from patent publication US7189859B2, “Radiolabelled phenylethyl imidazole carboxylic acid ester derivatives” (priority 2003, dated 2007).

One series deals with adrenals. Briefly: In vivo evaluation of ^131I-MTO (organ distribution after tail vein injection). The settings on record: rats, intravenous (tail vein). The method, then: Method: ^131I-MTO was used with a radiochemical purity >99% and a specific activity of 57 GBq/μmol. The radiotracer (0.5–1.1 MBq; […]) was injected into the tail vein of rats (female, 180–220 gram). Groups of four rats were sacrifized at specified times up to 24 hours post injection. The organs were excised and weighed, the radioactivity was measured at constant geometry using a gamma-spectrometer with a Nal(TI)-crystal. The data were expressed as percent of injected dose (ID) per organ and as percent of ID per gram tissue.

For series [1], the target named is T1, rat adrenal membranes (cytochrome P-450 β-hydroxylase) (Rattus norvegicus, UniProt P15393).
T1 sequence (P15393 25-499): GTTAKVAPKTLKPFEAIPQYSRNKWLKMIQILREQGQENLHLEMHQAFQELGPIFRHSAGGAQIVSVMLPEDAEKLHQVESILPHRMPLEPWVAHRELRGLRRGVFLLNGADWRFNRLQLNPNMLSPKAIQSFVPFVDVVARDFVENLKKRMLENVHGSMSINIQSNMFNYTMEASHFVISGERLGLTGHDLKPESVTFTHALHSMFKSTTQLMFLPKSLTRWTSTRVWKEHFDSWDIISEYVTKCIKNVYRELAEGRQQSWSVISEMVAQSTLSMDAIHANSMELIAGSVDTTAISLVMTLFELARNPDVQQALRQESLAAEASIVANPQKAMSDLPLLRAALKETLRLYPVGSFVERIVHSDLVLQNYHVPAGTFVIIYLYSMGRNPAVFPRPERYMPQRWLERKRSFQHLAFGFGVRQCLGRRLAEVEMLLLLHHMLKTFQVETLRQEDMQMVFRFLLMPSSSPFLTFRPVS
The series is described as follows: [^131I]MTO binding to rat adrenal membranes (association, dissociation, saturation). The note with it: saturation analysis, 2–100 nM 4-iodo-MTO carrier, 30 minutes incubation, pH 7.1; (15). As to the method:
Whole adrenals from adult male Wistar rats were homogenized in 10 mM K2HPO4/10 mM HEPES (pH 7.1) with a glass/teflon piston (Potter-type). The homogenate was centrifuged at 35.000×g for 10 min, the pellet was resuspended in fresh buffer and centrifuged again. Membranes were washed 2 more times and stored as aliquots at −80° C.
After incubation, membranes with bound radioligand were isolated by filtration through Whatman GF/B glass fiber filters (presoaked in buffer), followed by 2×4 mL washings with buffer, then filters were measured in a gamma-spectrometer.
For dissociation experiments, membranes were fully equilibrated with 2 nM radioligand, and the dissociation was initiated by the addition of excess unlabelled 4-iodo-MTO and stepwise filtration at 15 sec intervals.
For saturation studies 2–100 nM 4-iodo-MTO carrier was used. See summary in FIG. 1. […] Incubation for 30 minutes using 10 mM K2HPO4/10 mM HEPES, 150 mM NaCl (pH 7.1).

As for `COC(=O)c1cncn1[C@H](C)c1ccc([131I])cc1` [[^131I]MTO, (R)-3-[1-(4-[^131I]iodophenyl)ethyl]-3H-imidazole-4-carboxylic acid methyl ester], the “time of highest contrast for imaging of the adrenals (target-to-non-target-ratios)” value in the series on adrenals was “up to one hour post injection”. This compound also came in with a Bmax in series [1] of 2.4±0.4 pmol/mg tissue.
